In the NIST ThermoML archive (doi:10.1016/j.fluid.2016.02.004):

Assay: activity coefficient (dimensionless); of the first substance listed, at infinite dilution; xn = mol fraction of the nth substance listed
Settings: Liquid, Chromatography, x1 = 0

CCCCOCCCC [dibutyl ether] + CCCCn1cc[n+](C)c1.N#CN=C=[N-]
Settings	activity coefficient
318.15 K	47.4
328.15 K	46.4
338.15 K	45.5
348.15 K	44.6
358.15 K	43.9
368.15 K	43.1
